Only a part is listed here, and it is no random draw. Results filed as inconclusive are left out. Activity calls are given as the source filed them. Calls follow the shape of the dose curve; as a rule, active = well fitted inhibition curve with a large enough effect; inconclusive = small, poorly fitted or top-dose-only effect, or another doubt; inactive = no such curve, though single readings can be large or run the other way.
% is scaled to controls: 0 for no effect and ±100 for the full control effect; potency is read from the fitted curve at half-maximal effect.

Protein sequences, listed by entry. Tags and fused reporters are not part of them.
UniProt P11473, whole entry: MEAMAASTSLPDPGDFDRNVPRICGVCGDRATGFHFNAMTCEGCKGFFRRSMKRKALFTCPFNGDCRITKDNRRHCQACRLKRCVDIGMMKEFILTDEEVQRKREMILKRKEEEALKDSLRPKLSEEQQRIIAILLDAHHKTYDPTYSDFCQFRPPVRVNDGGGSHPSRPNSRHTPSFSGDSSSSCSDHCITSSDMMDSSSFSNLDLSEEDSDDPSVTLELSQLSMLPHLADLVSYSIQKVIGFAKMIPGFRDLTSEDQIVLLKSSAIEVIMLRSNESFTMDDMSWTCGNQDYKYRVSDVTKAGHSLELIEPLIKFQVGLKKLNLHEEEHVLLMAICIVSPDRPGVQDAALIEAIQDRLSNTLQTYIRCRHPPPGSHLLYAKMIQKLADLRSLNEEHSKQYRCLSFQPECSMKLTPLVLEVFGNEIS

This experiment has as its target Vitamin D3 receptor (Homo sapiens) (UniProt P11473). Put plainly: Inhibitors of the vitamin D receptor (VDR): qHTS. The note with it: VDR-SRC2-3 peptide fluorescence polarization, 2 h; max response, negative = inhibition: active compounds read low. Background: Quantitative high-throughput screening tests each substance at several concentrations.
As to `O=[N+]([O-])c1ccc2c(c1)C=Nc1ccccc1O2`, the max response, negative = inhibition was inactive: -29.9%.
On the same count and under the same terms, in the case of `Cc1ccc2nc3c(c(C)c2c1)CC(C(Cl)Cl)S3` (stereo not drawn) it was inactive: 10.1%; in that of `Cc1cccc(C)c1OP(C)(N)=O` (stereo not drawn), inactive: 16.9%.
With `O=C(O)C(O)(c1ccccc1)c1ccccc1`, the max response, negative = inhibition is inactive: 10.3%.
On to `Cc1ccc(OP(=O)(Nc2ccc([N+](=O)[O-])cn2)Oc2ccc(C)cc2)cc1`, for which the max response, negative = inhibition was inactive: -15.3%.
For `CC(C)(C)c1ccc(OP(C)(=O)Nc2ccc(SC(F)(F)F)cc2)cc1` (stereo not drawn), the max response, negative = inhibition was inactive: -27.1%.
As to `COc1cc(C(=O)NCC2(N3CCOCC3)CCCCC2)ccc1OCC(C)C`, the max response, negative = inhibition is inactive: 4.42%.
Turning to `O=[As](O)(c1ccc(O)cc1)c1ccccc1O`, the max response, negative = inhibition was inactive: 3.07%.
With `O=C(O)C1(O)c2ccccc2-c2ccccc21`, the max response, negative = inhibition is inactive: -24.9%.
Still for that read-out and setting: in the case of `C[As](=O)(O)c1cccc(C(=O)O)c1` it was inactive: -6.96%.
Still for that read-out and setting: in the case of `O=[N+]([O-])c1cc([N+](=O)[O-])c(Nc2cccnc2)c([N+](=O)[O-])c1` it was inactive: -8.13%; in that of `Cc1cc(C)cc(OP(C)(N)=O)c1` (stereo not drawn), inactive: -16.8%.
On to `COc1ccc(OP(C)(=O)Nc2cccc(F)c2)cc1` (stereo not drawn), for which the max response, negative = inhibition was inactive: -1.72%.
Still for that read-out and setting: in the case of `O=[N+]([O-])c1cc([N+](=O)[O-])c(-c2ccn[nH]2)s1` it was inactive: -4.71%.
The same measure, in the same setting: to `CC(C)NC(=O)NP(=O)(Oc1ccccc1)Oc1ccccc1` belongs inactive: 22.5%; to `COc1ccccc1OP(C)(=O)Nc1cc(Cl)ccc1C` (stereo not drawn), inactive: -3.7%; to `O=C(OC1CN2CCC1CC2)c1cccc2[nH]cnc12` (stereo not drawn), inactive: -2.42%.
Same read-out and setting: in the case of `COC(=O)C1(C)COP(=O)(N2CCCCCC2)OC1` (stereo not drawn) it was inactive: 3.21%.
`Cc1ccc(NP(C)(=O)Oc2ccccc2)c(C)c1` (stereo not drawn): the max response, negative = inhibition was inactive: 6.3%.
For the molecule `CC(C)c1ccc(OP(=O)(Nc2ccccn2)Oc2ccccc2F)cc1` (stereo not drawn), the max response, negative = inhibition was inactive: 0.813%.
As for `COc1ccccc1OP(C)(=O)Nc1ccc(C)cc1` (stereo not drawn), the max response, negative = inhibition was inactive: -2.37%.
On the same count and under the same terms, to `ClCCSc1nnc(-c2cccnc2)o1` belongs inactive: -6.36%; to `CCOC(=O)c1ccc(NP(C)(=O)Oc2ccccc2)cc1` (stereo not drawn), inactive: -9.32%.
For the molecule `COc1cc(I)ccc1[As](=O)(O)O`, the max response, negative = inhibition is inactive: 10.1%.
Same read-out and setting: to `COc1ccc2nc(NP(=O)(c3ccccc3)c3ccccc3)sc2c1` belongs inactive: -4.56%; to `O=P1(N(CCCl)CCCl)Nc2ccccc2N1`, inactive: -9.68%; to `O=P1(N(CCCl)CCCl)OCCCN1CCCl` (stereo not drawn), inactive: -5.04%.
On to `Cc1cc(=O)[nH]c(N[N+](=O)[O-])n1`, for which the max response, negative = inhibition is inactive: -7.74%.
For `CCN(CC)CCCOC(=O)C(O)(c1ccccc1)c1ccccc1`, the max response, negative = inhibition was inactive: -3.77%.
With `Cc1c2c(nc3ccccc13)SC(C(Cl)Cl)C2` (stereo not drawn), the max response, negative = inhibition was inactive: -24.3%.
`COc1ccc(N/C(=N/P(=O)(N2CCOCC2)N2CCOCC2)N2CCOCC2)cc1`: the max response, negative = inhibition was inactive: -6.27%.
Consider `Cc1cc(C)cc(OP(C)(=O)Nc2ccc(SC(F)(F)F)cc2)c1` (stereo not drawn), for which the max response, negative = inhibition is inactive: -4.24%.
The same measure, in the same setting: in the case of `O=C(Nc1ccncc1[N+](=O)[O-])c1ccc([N+](=O)[O-])cc1[N+](=O)[O-]` it was inactive: 20.2%; in that of `CP(=O)(NC(=O)Nc1ccccc1)Oc1ccccc1` (stereo not drawn), inactive: 83.1%; in that of `O=C(COc1ccccc1)OC1CN2CCC1CC2` (stereo not drawn), inactive: 4.83%.
On the same count and under the same terms, in the case of `CCc1ccc(OP(C)(=O)N2CCN(c3ccc([N+](=O)[O-])cc3)CC2)cc1` (stereo not drawn) it was inactive: 0.542%; in that of `CP(=O)(Oc1ccccc1)OC(c1ccccc1)C(F)(F)F` (stereo not drawn), inactive: -0.225%.
The same measure, in the same setting: to `COP1(=S)c2c(C)nn(CCC#N)c2N=C(c2ccc(F)cc2)N1C` (stereo not drawn) belongs inactive: -18.1%; to `CP(=O)(Nc1ccc(SC(F)(F)F)cc1)Oc1ccc(Cl)cc1` (stereo not drawn), inactive: -2.53%; to `Cc1cccc(C)c1OP(C)(=O)Nc1ccc(SC(F)(F)F)cc1` (stereo not drawn), inactive: 1.37%.
On to `CCOP(=O)(Nc1cccc2cccnc12)OCC`, for which the max response, negative = inhibition was inactive: 6.91%.
Still for that read-out and setting: in the case of `CP(=O)(Nc1ccccn1)Oc1ccc(Cl)cc1` (stereo not drawn) it was inactive: 14.1%; in that of `CCC(C)N(CC(C)C)C(=S)SC(NC(C)=O)C(Cl)(Cl)Cl` (stereo not drawn), inactive: -8.23%.
In the case of `CN(C)CCS`, the Potency is active: 31.6 µM.
Turning to `O=[N+]([O-])c1cc([N+](=O)[O-])c(O)c([N+](=O)[O-])c1.c1ccc(Oc2ccncc2)cc1`, the max response, negative = inhibition is inactive: -22.8%.
Same read-out and setting: to `CCOC(=O)c1ccc(NP(C)(=O)Oc2ccc(OC)cc2)cc1` (stereo not drawn) belongs inactive: -13.1%; to `CCOP(C)(=S)SCC(=O)NC(C)C(=O)O` (stereo not drawn), inactive: 18.6%; to `O=C(OC1CN2CCC1CC2)c1cccc([N+](=O)[O-])c1` (stereo not drawn), inactive: -18.8%.

For the origin of these results see PubChem BioAssay AID504847 (National Center for Advancing Translational Sciences (NCATS), 2011).
